Results as given in ChEMBL document CHEMBL1129147, “A chiral recognition element with an unusual size constraint affects the potency and selectivity for peptidomimetic inhibitors of Candida albicans myristoyl-CoA:protein N-myristoyltransferase” (Bioorg Med Chem Lett, 1996).

Tests used:
[1] = substrate: CC(C)C[C@H](NC(=O)CN)C(=O)N[C@@H](Cc1ccc(O)cc1)C(=O)N[C@@H](C)C(=O)N[C@@H](CO)C(=O)N[C@@H](CCCCN)C(=O)N[C@@H](CC(C)C)C(=O)N[C@@H](CO)C(N)=O; conditions: Candida albicans
[2] = substrate: CC(C)C[C@H](NC(=O)CN)C(=O)N[C@@H](Cc1ccc(O)cc1)C(=O)NCC(=O)N[C@@H](CO)C(=O)N[C@@H](CCCCN)C(=O)N[C@@H](CC(C)C)C(=O)N[C@@H](CO)C(N)=O; conditions: Candida albicans

B1: Glycylpeptide N-tetradecanoyltransferase 1 (Homo sapiens), P30419 (protein)
chain: MADESETAVKPPAPPLPQMMEGNGNGHEHCSDCENEEDNSYNRGGLSPANDTGAKKKKKKQKKKKEKGSETDSAQDQPVKMNSLPAERIQEIQKAIELFSVGQGPAKTMEEASKRSYQFWDTQPVPKLGEVVNTHGPVEPDKDNIRQEPYTLPQGFTWDALDLGDRGVLKELYTLLNENYVEDDDNMFRFDYSPEFLLWALRPPGWLPQWHCGVRVVSSRKLVGFISAIPANIHIYDTEKKMVEINFLCVHKKLRSKRVAPVLIREITRRVHLEGIFQAVYTAGVVLPKPVGTCRYWHRSLNPRKLIEVKFSHLSRNMTMQRTMKLYRLPETPKTAGLRPMETKDIPVVHQLLTRYLKQFHLTPVMSQEEVEHWFYPQENIIDTFVVENANGEVTDFLSFYTLPSTIMNHPTHKSLKAAYSFYNVHTQTPLLDLMSDALVLAKMKGFDVFNALDLMENKTFLEKLKFGIGDGNLQYYLYNWKCPSMGAEKVGLVLQ
Protein B1 has a Km [1] of 0.6 µM and a Km [2] of 4.6 µM.
